Molecular target: chymotrypsin (Bos taurus, UniProt P00766)
Conditions: 1 mM PMSF added before or after 6 hours digestion by chymotrypsin at 37° C.

In the case of O=S(=O)(F)Cc1ccccc1 [PMSF, phenylmethylsulfonyl fluoride], the “protease activity of the digested homogenate” value was “inhibited the protease activity”.

Reference: patent publication US20080195024A1, “Treating Disorders Associated with Inflammation” (priority 2005, published 2008)
